Results: patent publication US8637511B2, “Aminopyrimidines useful as kinase inhibitors” (Vertex Pharmaceuticals Incorporated, priority 2005, dated 2014)

Target: T1, JAK3 (Homo sapiens, UniProt P52333)
T1 sequence (P52333 1-1124): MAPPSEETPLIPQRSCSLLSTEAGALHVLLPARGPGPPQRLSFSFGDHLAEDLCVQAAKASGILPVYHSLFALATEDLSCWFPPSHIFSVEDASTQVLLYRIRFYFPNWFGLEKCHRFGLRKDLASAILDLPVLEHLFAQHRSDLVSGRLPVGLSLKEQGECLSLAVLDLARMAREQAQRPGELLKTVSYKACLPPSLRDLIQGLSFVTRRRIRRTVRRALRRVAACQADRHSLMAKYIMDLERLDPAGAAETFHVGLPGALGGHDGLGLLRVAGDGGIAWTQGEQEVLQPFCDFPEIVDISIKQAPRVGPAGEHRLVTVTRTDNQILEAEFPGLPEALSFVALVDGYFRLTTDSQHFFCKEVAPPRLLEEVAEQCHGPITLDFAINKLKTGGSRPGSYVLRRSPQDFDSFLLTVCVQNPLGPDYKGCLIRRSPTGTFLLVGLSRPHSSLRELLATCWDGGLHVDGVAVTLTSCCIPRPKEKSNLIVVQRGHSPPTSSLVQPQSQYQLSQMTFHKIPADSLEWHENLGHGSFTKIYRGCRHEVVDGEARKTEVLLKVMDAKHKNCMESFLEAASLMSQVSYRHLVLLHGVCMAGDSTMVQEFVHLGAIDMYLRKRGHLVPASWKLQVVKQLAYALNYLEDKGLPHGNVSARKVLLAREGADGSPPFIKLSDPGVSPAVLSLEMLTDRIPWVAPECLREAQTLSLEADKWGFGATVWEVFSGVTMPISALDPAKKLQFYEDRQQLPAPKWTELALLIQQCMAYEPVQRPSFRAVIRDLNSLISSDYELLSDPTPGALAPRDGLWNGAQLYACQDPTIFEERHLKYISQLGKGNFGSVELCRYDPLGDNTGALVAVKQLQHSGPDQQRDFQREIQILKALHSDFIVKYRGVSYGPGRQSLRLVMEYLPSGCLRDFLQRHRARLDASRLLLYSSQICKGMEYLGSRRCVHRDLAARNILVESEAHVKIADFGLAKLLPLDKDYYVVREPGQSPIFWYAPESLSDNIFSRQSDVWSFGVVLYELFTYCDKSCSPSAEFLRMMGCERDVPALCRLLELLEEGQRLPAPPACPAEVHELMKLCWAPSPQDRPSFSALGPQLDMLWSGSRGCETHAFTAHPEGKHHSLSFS
Experiment: biochemical

## Cc1cc(Nc2cc(N3CCC3)nc(Sc3ccc(NC(=O)c4ccccc4Cl)nc3)n2)[nH]n1 [Compound 207]
  Ki: 10 to 500 nM
